This passage reports Activity results from ChEMBL document CHEMBL3259517, “Synthesis and evaluation of phosphorus containing, specific CDK9/CycT1 inhibitors” (J Med Chem, 2014).

Series [1] concerns MT4. The experiment in a line: Cytotoxicity against human MT4 cells assessed as cell viability at 2500 nM after 7 days by MTT assay relative to control. The class given is cell-based. Particulars: mt4, 168 h, 2.5 µM. (Tetrazolium assays rely on reduction of a dye to a coloured formazan, in cell work by metabolically active cells.)
Series [2] deals with MT4. The experiment in a line: Cytotoxicity against human MT4 cells assessed as cell viability at 1250 nM after 7 days by MTT assay relative to control. The class given is cell-based. Particulars: mt4, 168 h, 1.25 µM.

Take `CCOP(=O)(CC)Nc1cc(Nc2cc(-c3ccccc3OC)ncn2)ccc1C` (stereo not drawn): the Activity in the series on MT4 [1] was found to be 29%; in the series on MT4 [2], 96%.
For `CCOP(=O)(CC)Oc1cc(Nc2cc(-c3ccccc3OC)ncn2)ccc1C` (stereo not drawn), in that order: 108% and 78%.
Regarding `CCOP(=O)(CC)Oc1cc(Nc2cc(-c3cccc(N)c3)ncn2)ccc1C` (stereo not drawn), the results for the Activity in the series with MT4 [1] and with MT4 [2] were 76% and 72%, respectively.
For `CCP(=O)(O)Oc1cc(Nc2cc(-c3ccccc3OC)ncn2)ccc1C`, in that order: 74% and 78%.
